The values below come from patent publication US4015017A, “Certain biphenyl derivatives used to treat disorders caused by increased capillary permeability” (Laboratoires Pharmascience, priority 1974, dated 1977).

Series [1] is described as follows: in vivo. The settings on record: rat, ip, acute toxicity, intraperitoneal administration, rats, read-out: DL50 A. IP.
Series [2] can be described thus: in vivo. The note with it: rat, acute toxicity, oral administration, rats, read-out: DL 50 A.O.

Where two headings read alike, the source gives them in different places.

For the compound `O=C(c1ccc(O)c(O)c1)c1cccc(O)c1O` [2,3,3',4'-Tetrahydroxybenzophenone, 2,3,3',4'-tetrahydroxybenzophenone], the figures for the LD50 in “in vivo [1]” and in the series “in vivo [2]” were 1500 mg/kg and 2000 mg/kg, respectively.
